Results on one compound are retold here after patent US9877967B2.

Structures are written as SMILES. Only a part of the results on these compounds is given; other tests are left out.

In the assay the test system is rats exposed to high dose furosemide and a low sodium diet and renal impairment. As to the kind of experiment: Protective effect of L-97-1 against renal impairment in low-sodium rats (creatinine clearance). As to conditions: 24-hr values extrapolated from 5-hr urine collection. As to the method: Groups of 8 male Sprague-Dawley rats weighing 250±20 g are employed. Rats are given an oral dose of furosemide at 100 mg/kg on day −7 and then placed on a low sodium diet (0.03% Na^+ wt/wt) for 7 days prior to use in acute experiment (day 0). Furosemide alone, L-97-1 alone, or furosemide in combination with L-97-1 are administered. L-97-1 is administered by oral gavage. Furosemide is administered IV. A 5-hr urine collection is performed. Terminal bleed is collected for measurements of serum electrolytes (Na^+ and K^+) and creatinine. Urine volume is measured and then centrifuged (400 g, 10 min) and assayed for Na^+ and K^+ concentrations, and creatinine with an Automatic Analyzer (Toshiba, TBA 1200 FR). Urine volume and urinary electrolytes are calculated and expressed per 100 g of animal body weight.
The total electrolytes (sodium and potassium) and creatinine in serum and urine are measured. Urine volume was collected over 5 hr. The 24-hr values for creatinine clearance and the fractional excretion of sodium are extrapolated from the 5-hr values. The 5-hr endogenous creatinine clearance (CCr) is used as a measure of glomerular filtration rate. […]
The mean±SEM values for each treatment group is calculated. […]

Consider `CCCn1c(=O)c2c(nc(Cc3ccccc3)n2CCN(CC)CCO)n(CCc2ccc(N)cc2)c1=O`, for which the “Change in creatinine clearance (Ccr) from baseline Ccr (vehicle control, Group 4)” value runs as follows: (L-97-1 alone 50 mg/kg PO (Group 3) compared to furosemide alone 30 mg/kg IV (Group 1), P<0.05) “significantly increased”; (furosemide 30 mg/kg IV plus L-97-1 50 mg/kg PO (Group 2) compared to furosemide alone (Group 1)) “increased”.
